Measurements published in article PMC10146558, “Highly Cytotoxic Copper(II) Mixed-Ligand Quinolinonato Complexes: Pharmacokinetic Properties and Interactions with Drug Metabolizing Cytochromes P450” (Pharmaceutics, 2023).

Test system: CYP3A4/5
Test: CYP3A4/5 activity (testosterone 6β-hydroxylation) in human liver microsomes
Conditions: Dixon and Lineweaver–Burk plots

O.O.O.O=[N+]([O-])[O-].O=[N+]([O-])[O-].[Cu+2] [copper(II) nitrate trihydrate, reference compound]
Type of inhibition, CYP3A4/5 (testosterone 6β-hydroxylation): non-competitive
